Reference: patent US4021546A (priority 1976, dated 1977)
Like-named read-outs stand apart in the source and are kept apart here.

Substance: DIGOXIN MONO-(N,N-DIMETHYL)-GLYCINATE [Example I]
- solubility (0.01 N HCl): 12.6 mg/mL
- solubility (pH of 3, citrate buffer): 12.2 mg/mL
